Test results as given in patent US8481731B2, “Compounds, pharmaceutical composition and methods relating thereto” (Boehringer Ingelheim International GmbH, priority 2009, dated 2013).

The chains behind the UniProt entries cited, without tags or fusion partners. A line that says so, or that is headed by a name, gives the form on record, which may keep a tag or linker. Residues count along the entry.
UniProt Q8TDV5, 2-335 with tags or gaps S329A/T327A limits assumed: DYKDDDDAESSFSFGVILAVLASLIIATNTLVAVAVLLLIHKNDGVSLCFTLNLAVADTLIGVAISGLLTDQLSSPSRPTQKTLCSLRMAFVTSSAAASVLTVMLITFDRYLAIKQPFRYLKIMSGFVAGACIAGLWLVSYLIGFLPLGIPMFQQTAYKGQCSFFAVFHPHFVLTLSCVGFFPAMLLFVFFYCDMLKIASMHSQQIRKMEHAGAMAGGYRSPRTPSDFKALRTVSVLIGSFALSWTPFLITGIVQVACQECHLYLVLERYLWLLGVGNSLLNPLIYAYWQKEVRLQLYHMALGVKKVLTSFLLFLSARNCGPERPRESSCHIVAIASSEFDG

Molecular target: human GPR119 receptor (Homo sapiens, UniProt Q8TDV5, S329A/T327A)
Test: cAMP assay (LANCE cAMP-384 Kit), cAMP accumulation in HEK293 cells stably expressing mutant human GPR119 receptor
Conditions: HEK293 cells stably expressing a mutant form of the human GPR119 receptor, 20 min at 37° C.
Method: Quantitative detection of cAMP accumulation from cells expressing human GPR119 receptor was achieved using Perkin Elmer's LANCE cAMP-384 Kit (Cat#AD0264) according to the manufacturer's protocol. Briefly, HEK293 cells stably expressing a mutant form of the human GPR119 receptor (Methionine 1 replaced with the amino acid sequence […] , and T327 & S329 changed to alanines) were grown to 50-70% confluency in cell culture media (DMEM, 10% heat inactivated Fetal Bovine Serum, 50 I.U./mL penicillin, 50 μg/mL streptomycin, 10 mM HEPES, 20 μg/mL G418 Sulfate). On the day of the assay, GPR119 stable HEK293 cells were lifted from the tissue culture plate and 1000 cells/well were incubated along with various concentrations of test compounds for 20 min at 37° C. Detection Buffer (50 mM HEPES, 10 mM calcium chloride, 0.35% Triton X-100, 1 mg/mL BSA) containing cAMP-specific antibody was then added to all wells and allowed to equilibrate in the dark for 10 minutes at room temperature. […] After 1 hour, bound europium-labeled cAMP tracer was measured using a Perkin Elmer ViewLux. The quantity of cAMP generated in each well was derived from a standard curve.
For some compounds for which no EC50 value could be determined, the efficacy is provided at a single concentration (10 μM) yielding % stimulation values.

CC(C)(C)OC(=O)CN1CCC(Oc2cc(N3CCc4cc(S(C)(=O)=O)ccc43)ncn2)CC1
EC50: 168 nM
